Measurements published in PubChem BioAssay AID2550 (Johns Hopkins Ion Channel Center, 2010).
Only a part is listed here, and it is no random draw. Some salts or complexes appear as unconnected parts, following the source record. Activity calls are given as the source filed them.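 The calls were made as follows: active = B-score of the integrated fluorescence ratio above library mean plus 3 SD, and starting fluorescence ratio within library mean plus 5 SD; inactive = the rest.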

Sequences of proteins named here, by UniProt entry; tags and fusion partners are left off.
UniProt Q61143, whole entry: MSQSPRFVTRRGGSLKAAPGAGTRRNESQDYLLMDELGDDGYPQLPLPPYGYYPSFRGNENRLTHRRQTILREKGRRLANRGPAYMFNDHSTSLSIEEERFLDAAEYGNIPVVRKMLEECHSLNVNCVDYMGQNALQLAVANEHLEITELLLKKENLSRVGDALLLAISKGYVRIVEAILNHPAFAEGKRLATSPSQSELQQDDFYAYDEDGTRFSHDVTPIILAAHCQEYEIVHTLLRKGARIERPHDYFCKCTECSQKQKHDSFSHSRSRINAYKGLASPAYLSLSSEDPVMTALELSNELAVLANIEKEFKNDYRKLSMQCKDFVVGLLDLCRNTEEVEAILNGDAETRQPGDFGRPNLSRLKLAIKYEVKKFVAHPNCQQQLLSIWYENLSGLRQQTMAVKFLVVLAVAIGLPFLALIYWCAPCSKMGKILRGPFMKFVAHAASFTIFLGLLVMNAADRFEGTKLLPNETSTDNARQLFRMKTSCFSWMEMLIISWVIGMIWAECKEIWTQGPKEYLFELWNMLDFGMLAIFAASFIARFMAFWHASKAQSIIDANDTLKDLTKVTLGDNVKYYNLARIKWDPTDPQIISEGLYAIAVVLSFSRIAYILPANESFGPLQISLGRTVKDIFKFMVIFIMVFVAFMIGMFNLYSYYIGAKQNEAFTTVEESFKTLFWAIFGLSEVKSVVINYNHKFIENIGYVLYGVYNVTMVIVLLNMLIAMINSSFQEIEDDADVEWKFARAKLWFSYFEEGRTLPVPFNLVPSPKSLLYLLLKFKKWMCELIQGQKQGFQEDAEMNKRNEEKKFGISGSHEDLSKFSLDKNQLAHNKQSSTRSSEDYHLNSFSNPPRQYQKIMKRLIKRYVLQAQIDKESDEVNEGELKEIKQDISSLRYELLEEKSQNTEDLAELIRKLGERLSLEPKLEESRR

biological target: Short transient receptor potential channel 6 (Mus musculus) (UniProt Q61143); assay: mouse TRPC6 channel activators, primary screen, cell-based, HEK293, membrane potential dye (AID 2550); conditions: HEK293-TRPC6 membrane potential dye fluorescence; at 10 µM;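 also: higher score means more depolarization so channel activation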

SMILES | outcome
CCOc1ccc(C2=NCC(CBr)S2)cc1 (centres undefined) | inactive
O=P1(Nc2nc3ccc(Cl)cc3s2)COc2ccccc2O1 (centres undefined) | inactive
CC(C)c1ccc(OP(C)(=O)Nc2ccc(SC(F)(F)F)cc2)cc1 (centres undefined) | inactive
CC(C)(C)C(=O)NC(Sc1ccccc1)C(Cl)(Cl)Cl (centres undefined) | inactive
CP(=O)(Nc1ccccc1F)Oc1ccccc1 (centres undefined) | inactive
C[C@H]1OP(=O)(Oc2ccccc2)C[C@@H]2O[C@@H]21 (some centres undefined) | inactive
C[C@@H]1C=CCP(=O)(Oc2ccccc2)O1 (some centres undefined) | inactive
O=C(OCCN1CCN(CCOCc2ccccc2)CC1)C(O)(c1ccccc1)c1ccccc1 | inactive
O=C(OC1CN2CCC1CC2)c1ccc([N+](=O)[O-])cc1 (centres undefined) | inactive
CC(=O)c1ccc(N2CC2c2ccncc2)cc1 (centres undefined) | inactive
CC(=O)Nc1ccc(Oc2c([N+](=O)[O-])cc([N+](=O)[O-])cc2[N+](=O)[O-])cc1 | inactive
CC(=O)Nc1ccc([As](=O)(O)O)c(O)c1 | inactive
COc1ccc2c(c1O)-c1c(O)c(OC)cc3c1[C@H](C2)[N+](C)(C)CC3.O=[N+]([O-])c1cc([N+](=O)[O-])c([O-])c([N+](=O)[O-])c1[O-] | inactive
Cc1ccc(NP(=O)(Oc2cccc(C)c2)Oc2cccc(C)c2)nc1 | inactive
CCOC(=O)NC(Sc1ccccc1)C(Cl)(Cl)Cl (centres undefined) | inactive
c1ccc(-c2nn[nH]n2)c(-c2nn[nH]n2)c1 | inactive
O=C(NC1CCS(=O)(=O)C1)NP(=S)(Oc1ccccc1)Oc1ccccc1 (centres undefined) | inactive
CCNC(=S)/N=C(\N)N[N+](=O)[O-] | inactive
COc1ccc(OP(C)(=O)Nc2ccc(SC(F)(F)F)cc2)cc1 (centres undefined) | inactive
CCOC(=O)c1ccc(NP(C)(=O)Oc2ccc(F)cc2)cc1 (centres undefined) | inactive
CCC(=O)N1C2C3N(C(=O)CC)C1C1N(C(=O)CC)C(C(N1C(=O)CC)N3C(=O)CC)N2C(=O)CC | inactive
CCN(CC)CCCOC(=O)C(O)(c1ccccc1)C1CCCCC1 (centres undefined) | inactive
O=C(OC1CN2CCC1CC2)c1ccccc1 (centres undefined) | inactive

SMILES | outcome
CC(=O)NC(SC(=S)N(CC(C)C)CC(C)C)C(Cl)(Cl)Cl (centres undefined) | inactive
Cc1ccc(OP(=O)(Nc2ccccn2)Oc2ccc(C)cc2)cc1 | inactive
COC(=O)c1cc2c(s1)N=C(c1ccccc1)N(C)P2(=O)N1CCOCC1 (centres undefined) | inactive
CCCCCOc1ccc(NP(C)(=O)Oc2ccc(Cl)cc2Cl)cc1 (centres undefined) | inactive
O=[N+]([O-])c1cc([N+](=O)[O-])c(OC2CCCCC2O)c([N+](=O)[O-])c1 (centres undefined) | inactive
CN(C)C(=O)Oc1noc2ccccc12 | inactive
Cc1ccccc1OP(=O)(Nc1ccccn1)Oc1ccccc1C | inactive
CP(=O)(Nc1ccccc1)Oc1ccc(F)cc1 (centres undefined) | inactive
CN(C)C1(CNC(=O)c2ccc(Cl)c(S(N)(=O)=O)c2)CCCCC1 | inactive
O=P(Nc1ccccn1)(c1ccc(Br)cc1)c1ccc(Br)cc1 | inactive
COc1ccc(OP(C)(=O)Nc2cccc(Br)c2)cc1 (centres undefined) | inactive
COc1ccc(NP(C)(=O)Oc2ccccc2OC)cc1 (centres undefined) | inactive
C[C@H]1OP(=O)(Oc2ccccc2)[C@H](O)[C@H](O)[C@H]1N=[N+]=[N-] (some centres undefined) | inactive
O=P(Nc1nc2ccccc2s1)(c1ccccc1)c1ccccc1 | inactive
CN(C)CCOC(=O)C(O)(c1ccccc1)C1CCCCC1 (centres undefined) | inactive
Cc1cc(-c2cccc3ccccc23)c(C)cn1.O=[N+]([O-])c1cc([N+](=O)[O-])c(O)c([N+](=O)[O-])c1 | inactive
O=[N+]([O-])c1cc([N+](=O)[O-])c(NCC2CCS(=O)(=O)C2)c([N+](=O)[O-])c1 (centres undefined) | inactive
O=[As](O)(c1ccccc1)c1ccc(O)cc1 | inactive
CC(=O)NC(SC(=S)N(C)C)C(Cl)(Cl)Cl (centres undefined) | inactive
O=[N+]([O-])c1ccc(OP2(=O)COCCO2)cc1 (centres undefined) | inactive
O=[N+]([O-])c1ncn(CCn2cnc([N+](=O)[O-])n2)n1 | inactive
O=[N+]([O-])c1ccc(O)c(/C=N/Nc2ccc([N+](=O)[O-])cc2[N+](=O)[O-])c1 | inactive
O=C(OC1CN2CCC1CC2)c1cccc(Cl)c1 (centres undefined) | inactive

SMILES | outcome
C(Cc1nn[nH]n1)Cc1nn[nH]n1 | inactive
Nc1ccc([As](=O)(O)c2ccc([N+](=O)[O-])cc2)cc1 | inactive
O=P(Nc1nccs1)(c1ccccc1)c1ccccc1 | inactive
CC(C)C(=O)NC(Sc1ccccc1)C(Cl)(Cl)Cl (centres undefined) | inactive
CP(=O)(Nc1ccc(SC(F)(F)F)cc1)Oc1ccc(F)cc1 (centres undefined) | inactive
c1nnnn1CCn1cnnn1 | inactive
CCOP(C)(=S)SCC(=O)NC(C)(CC)C(=O)O (centres undefined) | inactive
CP(=O)(Nc1ccc2c(c1)OCCO2)Oc1ccccc1 (centres undefined) | inactive
COc1ccc(OP(C)(=O)Nc2ccc(Br)cc2)cc1 (centres undefined) | inactive
COc1ccc(C2=NCC(CBr)S2)cc1 (centres undefined) | inactive
CCN(CC)CC(O)COC(=O)C(O)(c1ccccc1)C1CCCCC1 (centres undefined) | inactive
CCc1ccc(OP(C)(=O)Nc2cccnc2)cc1 (centres undefined) | inactive
O=[N+]([O-])c1cc([N+](=O)[O-])c(CCNc2ccccc2)c([N+](=O)[O-])c1 | inactive
CCc1nc2c(n1)c1c(non1O)c1c2no[n+]1[O-] | inactive
CP(=O)(Oc1ccccc1)N1CCOC1=O (centres undefined) | inactive
Cc1ccc(NP(=O)(Oc2ccccc2)Oc2ccccc2)nc1 | inactive
O=C(OCCCN1CCCC1)C(O)(c1ccccc1)C1CCCCC1 (centres undefined) | inactive
CC(=O)N1C2C3N(C(C)=O)C1C1N(C(C)=O)C(C(N1C(C)=O)N3C(C)=O)N2C(C)=O | inactive
O=[N+]([O-])c1cccc2n[nH]nc12 | inactive
COc1ccccc1OP(C)(=O)Nc1c(C)n(C)n(-c2ccccc2)c1=O (centres undefined) | inactive
CP(=O)(Nc1ccc(Cl)cc1)Oc1ccc(F)cc1 (centres undefined) | inactive
CCN(/C(=N/P(=O)(N1CCOCC1)N1CCOCC1)N1CCOCC1)c1ccc(OC)cc1 | inactive
C[N+]1=C2C=CC=CC=C2SC12C([N+](=O)[O-])=CC([N+](=O)[O-])=C[C-]2[N+](=O)[O-] (centres undefined) | inactive

SMILES | outcome
COc1ccccc1OP(C)(=O)Nc1ccccc1Br (centres undefined) | inactive
Nc1ccc([As](=O)(O)c2ccc(N)cc2)cc1 | inactive
CC(C)(C)c1ccc(OP(C)(=O)O)cc1 | inactive
CC1CCN(C(=O)Oc2c(Cl)cc(Cl)c3cccnc23)CC1 | inactive
CN(C)C(=O)OCCc1n(C)cc[n+]1C | inactive
CC(C)=N/N=C(\N)N[N+](=O)[O-] | inactive
CN(C)C(=O)c1c([N+](=O)[O-])cc([N+](=O)[O-])cc1[N+](=O)[O-] | inactive
Nc1ccc2c(ccc3cccnc32)n1.O=[N+]([O-])c1cc([N+](=O)[O-])c(O)c([N+](=O)[O-])c1 | inactive
CP(=O)(OC12CC3CC(CC(C3)C1)C2)OC12CC3CC(CC(C3)C1)C2 | inactive
O=C(Nc1cc([As](=O)(O)O)ccc1O)c1ccccc1 | inactive
CCOC(=O)c1ccc(NP(C)(=O)Oc2ccc(Cl)cc2)cc1 (centres undefined) | inactive
O=[N+]([O-])c1ncn(CCn2ncnc2[N+](=O)[O-])n1 | inactive
CC(C)(C)C(=O)NC(Sc1ccncn1)C(Cl)(Cl)Cl (centres undefined) | inactive
O=C(O)CNc1ccc([As](=O)(O)O)cc1 | inactive
O=[N+]([O-])c1cccc(NC2=NCC(CBr)S2)c1 (centres undefined) | inactive
O=P(Nc1nc2ccc(Cl)cc2s1)(c1ccccc1)c1ccccc1 | inactive
Cc1cc(C)cc(OP(C)(=O)Nc2cccc(C(F)(F)F)c2)c1 (centres undefined) | inactive
CC(=O)Nc1ccc([As](=O)(O)O)cc1 | inactive
O=C(O)c1ccccc1[As](=O)(O)O | inactive
COc1ccc(OP(C)(=O)Nc2ccccc2Br)cc1 (centres undefined) | inactive
COc1ccccc1OP(C)(=O)Nc1ccc(C)c(C)c1 (centres undefined) | inactive
CN(C(=O)Cc1ccc(Cl)c(Cl)c1)[C@H]1CCCC[C@@H]1N1CCCC1 | inactive
Cc1ccc(NP(=O)(Oc2ccccc2F)Oc2ccccc2F)nc1 | inactive

SMILES | outcome
Cc1cc(SC(NC(=O)c2ccc(F)cc2)C(Cl)(Cl)Cl)ncn1 (centres undefined) | inactive
CCOP(=O)(Nc1ccccc1)OCC | inactive
O=[N+]([O-])c1cc([N+](=O)[O-])c(CCN2CCOCC2)c([N+](=O)[O-])c1 | inactive
Cc1nc2ccc3ccccc3c2o1.O=[N+]([O-])c1cc([N+](=O)[O-])c(O)c([N+](=O)[O-])c1 | inactive
CP(=O)(Nc1ccc(Cl)cc1Cl)Oc1ccccc1 (centres undefined) | inactive
CP(=O)(OCCOc1ccccc1)OCCOc1ccccc1 | inactive
Nc1cccc2ccc([As](=O)(O)O)cc12 | inactive
CCN(N=Nc1nonc1N)c1nonc1N | inactive
Cc1ccc(N/C(=N/P(=O)(N2CCOCC2)N2CCOCC2)N2CCOCC2)cc1 | inactive
COc1ccccc1OP(C)(=O)Nc1ccc(Br)cc1 (centres undefined) | inactive
NC(=O)c1cc([N+](=O)[O-])cc([N+](=O)[O-])c1N | inactive
CN1CCCC(OC(=O)C(c2ccccc2)c2ccccc2)C1 (centres undefined) | inactive
CN(C)CCOC(=O)C(O)(c1ccccc1)C1CCCC1 (centres undefined) | inactive
Clc1ccc(Cl)c(NC2=NCC(CBr)S2)c1 (centres undefined) | inactive
Cc1ccc(OP(=O)(Nc2nccs2)Oc2ccc(C)cc2)cc1 | inactive
COc1ccccc1OP(=O)(Nc1ccc(C)cn1)Oc1ccccc1OC | inactive
COc1ccc(OP(C)(=O)Nc2ccccn2)cc1 (centres undefined) | inactive
O=C(NC(Sc1ccncn1)C(Cl)(Cl)Cl)c1ccccc1 (centres undefined) | inactive
Cc1c2non([O-])c-2c(C)[n+](=O)[n+]1[O-] | inactive
Oc1ccccc1CNc1ccccn1 | inactive
Nc1cc(N)c2nonc2c1[N+](=O)[O-] | inactive
Cc1c(NP(C)(=O)Oc2ccc(C(C)C)cc2)c(=O)n(-c2ccccc2)n1C (centres undefined) | inactive
